Source: ChEMBL document CHEMBL5576103, “Targeting prolidase. A survey of the literature data to depict a structure-activity relationship frame and to address future studies for drug development” (Bioorg Med Chem, 2024)

Columns and labels:
[1] = target: T1, Xaa-Pro dipeptidase (Homo sapiens) (UniProt P12955); experiment: Inhibition of prolidase (unknown origin) at 100 uM relative to control
T1 sequence (whole entry): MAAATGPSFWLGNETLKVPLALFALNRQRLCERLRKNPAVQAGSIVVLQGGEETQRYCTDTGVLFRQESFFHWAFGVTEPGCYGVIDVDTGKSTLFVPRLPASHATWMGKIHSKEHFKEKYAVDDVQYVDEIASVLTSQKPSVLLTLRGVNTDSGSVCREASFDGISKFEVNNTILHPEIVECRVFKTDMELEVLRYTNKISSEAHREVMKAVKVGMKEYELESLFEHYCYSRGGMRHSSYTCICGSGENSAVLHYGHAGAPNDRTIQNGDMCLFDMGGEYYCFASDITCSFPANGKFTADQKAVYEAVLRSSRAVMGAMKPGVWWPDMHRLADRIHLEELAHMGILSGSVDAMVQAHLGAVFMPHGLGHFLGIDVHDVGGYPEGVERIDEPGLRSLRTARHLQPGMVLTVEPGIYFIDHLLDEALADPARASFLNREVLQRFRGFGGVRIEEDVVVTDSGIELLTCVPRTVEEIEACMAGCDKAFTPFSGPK

[2] = target: T1, Xaa-Pro dipeptidase (Homo sapiens); experiment: Inhibition of prolidase (unknown origin) at 1 uM relative to control
[3] = target: T1, Xaa-Pro dipeptidase (Homo sapiens); experiment: Inhibition of prolidase (unknown origin) at 2 uM relative to control
[4] = target: T1, Xaa-Pro dipeptidase (Homo sapiens); experiment: Inhibition of prolidase (unknown origin) at 0.5 uM relative to control
Hathewaya histolytica [5] = experiment: Inhibition of collagen biosynthesis Clostridium histolyticum assessed as reduction in collagen formation at 30 uM by spectrophotometric analysis; type: functional
Hathewaya histolytica [6] = experiment: Inhibition of collagen biosynthesis Clostridium histolyticum assessed as reduction in collagen formation at 5 microg/ml by spectrophotometric analysis; type: functional; settings: dose 5.0 µg/ml
[7] = target: T1, Xaa-Pro dipeptidase (Homo sapiens); experiment: Inhibition of prolidase (unknown origin) at 10 microg/ml relative to control; settings: dose 10.0 µg/ml
[8] = target: T1, Xaa-Pro dipeptidase (Homo sapiens); experiment: Inhibition of prolidase (unknown origin) at 0.03 uM relative to control
[9] = target: T1, Xaa-Pro dipeptidase (Homo sapiens); experiment: Inhibition of prolidase (unknown origin) at 0.05 uM relative to control
[10] = target: T1, Xaa-Pro dipeptidase (Homo sapiens); experiment: Inhibition of prolidase (unknown origin) at 0.01 uM relative to control
[11] = target: T1, Xaa-Pro dipeptidase (Homo sapiens); experiment: Inhibition of prolidase (unknown origin) at 200 uM relative to control
[12] = target: T1, Xaa-Pro dipeptidase (Homo sapiens); experiment: Inhibition of prolidase (unknown origin) at 5 uM relative to control

O=C(CCc1ccccc1)NCC(=O)N1CCC[C@H]1C(=O)Nc1ccc2ccc(=O)oc2c1
inhibition [1]: 91%

Cn1c(=O)c2c(ncn2C)n(C)c1=O
inhibition [2]: 17.5% | inhibition [3]: 28.8% | inhibition [4]: 38.8%

O=C(O)[C@H]1O[C@@H](Oc2cc(O)c3c(=O)cc(-c4ccc(O)cc4)oc3c2)[C@H](O)[C@@H](O)[C@@H]1O
inhibition (Hathewaya histolytica [5]): 10%

C=C(C)[C@@H]1CC[C@]2(C(=O)O)CC[C@]3(C)[C@H](CC[C@@H]4[C@@]5(C)CC[C@H](O)C(C)(C)[C@@H]5CC[C@]43C)[C@@H]12
inhibition (Hathewaya histolytica [6]): 50% | inhibition [7]: 50%

COC(=O)c1ccc(O)cc1
inhibition [8]: 66.5% | inhibition [9]: 80% | inhibition [10]: 32.5%

COC(=O)[C@H]1O[C@@H](Oc2cc(O)c3c(=O)cc(-c4ccc(O)cc4)oc3c2)[C@H](O)[C@@H](O)[C@@H]1O
inhibition (Hathewaya histolytica [5]): 10%

C=CCCCCCC1OC1C/C=C\C/C=C/CC (stereo not drawn)
inhibition [11]: 55%

CC(=O)Oc1ccccc1C(=O)O
inhibition [12]: 45%
